Test system: NF-κB
Format: cell-based, human
Description: Methods. […] Immunoblot analysis (30 μg of protein per condition) was performed to detect cleavage of caspase-12 and PARP, levels of IκB c, phospho-IκBα, p65, p100/p52, as well as expression of NF-κB downstream anti-apoptotic proteins. Parallel studies were performed in two established CLL cell lines (JVM-3 and MEC-2, DSMZ).

`CC(C)C[C@H](NC(=O)[C@H](Cc1ccccc1)NC(=O)c1cnccn1)B(O)O` [bortezomib, [(1R)-3-methyl-1-[[(2S)-1-oxo-3-phenyl-2-[(pyrazinylcarbonyl)amino]propyl]amino]butyl]boronic acid] was tested, and the “romidepsin-induced NF-κB activation” value was “abrogated”.
